9 molecules from ChEMBL document CHEMBL1148550, “4-Phenyl-4-[1H-imidazol-2-yl]-piperidine derivatives, a novel class of selective delta-opioid agonists” (Bioorg Med Chem Lett, 2006) can be followed below.

Amino acid sequences for entries named in this document (tags omitted). A change or cut given only in a name is not applied to a line headed by its entry.
UniProt P41143, whole entry: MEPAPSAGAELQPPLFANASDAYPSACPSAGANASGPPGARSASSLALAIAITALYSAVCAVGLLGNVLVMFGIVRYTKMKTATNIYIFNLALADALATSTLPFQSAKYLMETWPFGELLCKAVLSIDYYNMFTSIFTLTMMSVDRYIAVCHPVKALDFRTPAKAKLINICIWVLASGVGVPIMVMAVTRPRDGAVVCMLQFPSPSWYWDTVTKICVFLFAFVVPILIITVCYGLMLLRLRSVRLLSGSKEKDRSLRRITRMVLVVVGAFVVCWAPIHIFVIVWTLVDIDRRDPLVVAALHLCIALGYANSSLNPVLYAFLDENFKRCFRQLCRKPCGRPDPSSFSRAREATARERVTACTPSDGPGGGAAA
UniProt P41145: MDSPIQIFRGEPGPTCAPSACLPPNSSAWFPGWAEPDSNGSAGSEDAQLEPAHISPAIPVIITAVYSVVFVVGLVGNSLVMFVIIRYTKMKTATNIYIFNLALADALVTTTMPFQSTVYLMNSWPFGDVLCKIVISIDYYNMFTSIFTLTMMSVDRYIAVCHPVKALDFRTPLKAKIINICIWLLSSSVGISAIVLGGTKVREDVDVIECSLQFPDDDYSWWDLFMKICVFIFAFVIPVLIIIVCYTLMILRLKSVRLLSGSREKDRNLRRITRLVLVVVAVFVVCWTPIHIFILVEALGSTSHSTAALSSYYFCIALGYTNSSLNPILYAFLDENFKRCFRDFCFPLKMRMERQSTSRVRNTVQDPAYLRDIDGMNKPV

Experiment [1] concerns the target T1, Delta-type opioid receptor (Homo sapiens, UniProt P41143). Description: Displacement of [3H]DPDPE from cloned human delta opioid receptor. Put shortly: (§1)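 Radioligand competition binding at cloned human receptors: [³H]DAMGO for mu, [³H]DPDPE for delta, [³H]U69593 for kappa. Ki is the concentration giving half-maximal inhibition of tracer binding. Values are means of two independent, confirmatory experiments; only pIC50 differences up to 0.6 (SD < 0.5) were kept as reproducible.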
In general terms: Displacement assays read how much labelled ligand stays bound in the presence of the test substance.

Experiment [2] deals with T1, Delta-type opioid receptor. Description: Agonist potency assessed by [35S]GTP-gammaS binding assay in C6 Glioma cells expressing cloned human delta opioid receptor. It counts as functional, cell-based. Put shortly: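 Membranes expressing human δ-opioid receptors; agonism read as percent stimulation of [³⁵S]GTPγS binding against log molar ligand concentration. pEC₅₀ derived from three-parameter logistic curve fits.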

Experiment [3] addresses Kappa-type opioid receptor (Homo sapiens, UniProt P41145). Briefly: Displacement of [3H]U-69593 from cloned human kappa opioid receptor. Put shortly:
as §1

In the case of `O=C(Nc1ccccc1)N1CCC(c2ccccc2)(c2nccn2Cc2ccccc2F)CC1`, in experiment [1], the affinity corresponds to a Ki of 0.072 µM. In experiment [2], `CCNC(=O)N1CCC(c2ccccc2)(c2nccn2Cc2ccccc2)CC1` had a half-maximal effective concentration (EC50) of 0.117 µM. Also, the inhibition constant (Ki) in experiment [1] was 0.039 µM. In experiment [1], `CC(c1ccccc1)n1ccnc1C1(c2ccccc2)CCN(C(=O)Nc2ccccc2)CC1` (stereo not drawn) displayed a Ki of 0.043 µM. Same read-out and setting: the value for `O=C(Nc1cccc(F)c1)N1CCC(c2ccccc2)(c2nccn2Cc2ccccc2)CC1` was 0.029 µM. As for `COc1ccccc1NC(=O)N1CCC(c2ccccc2)(c2nccn2Cc2ccccc2)CC1`, in experiment [2], the EC50 is 0.117 µM. The inhibitory constant (Ki) in experiment [1] came to 0.031 µM.

In experiment [1], `O=C(Nc1ccccc1F)N1CCC(c2ccccc2)(c2nccn2Cc2ccccc2)CC1` showed a Ki of 0.029 µM. Regarding `COc1cccc(NC(=O)N2CCC(c3ccccc3)(c3nccn3Cc3ccccc3)CC2)c1`, a half-maximal effect in experiment [2] (EC50) was put at 0.436 µM. This molecule came in with a Ki in experiment [1] of 0.046 µM.

With `O=S(=O)(Nc1ccccc1)N1CCC(c2ccccc2)(c2nccn2Cc2ccccc2)CC1`, in experiment [3], the inhibition constant Ki stood at 0.346 µM.

In experiment [2], `CN(C(=O)N1CCC(c2ccccc2)(c2nccn2Cc2ccccc2)CC1)c1ccccc1` returned a concentration for a half-maximal effect (EC50) of 0.776 µM. For the same molecule, in experiment [1], the affinity corresponds to a Ki of 0.009 µM.

By Ki is commonly meant the equilibrium dissociation constant of an inhibitor or competing ligand from its target. Lower therefore signals tighter binding. As usually defined, the EC50 is the concentration needed to bring the measured effect to its halfway point. Read a low EC50 as greater potency.
